# Results as given in paper PMC6368252.
# What was measured:
# [1] = molecular target: Gpi1 (glucose-6-phosphate isomerase), endogenous in mouse cerebellum (mouse (endogenous in cerebellum)) (UniProt P06745); test: non-reducing SDS-PAGE and western blot of tissue extract; cerebella of P18 Oxr1+/+ and Oxr1d/d mice homogenised in PBS; no cross-linker; non-reducing conditions, 8% SDS-PAGE, western blot for Gpi1; control samples with β-mercaptoethanol and boiled
# [2] = molecular target: MYC-tagged Gpi1 (glucose-6-phosphate isomerase), wild-type (mouse) (UniProt P06745); test: cross-linking; HeLa cells co-transfected with Gpi1 and an empty vector, Oxr1-FL or Oxr1-C; scraped in PBS with 1 mM DSP, 30 min at room temperature, quenched with 50 mM Tris pH 7.8; non-reducing, unboiled samples on 8% SDS-PAGE, western blot; dimeric and tetrameric forms lost with β-mercaptoethanol and boiling
substance,measurement,setting,value
"Gpi1 (glucose-6-phosphate isomerase), endogenous in mouse cerebellum (from UniProt P06745 1-558) (enzyme)",stoichiometry N,[1],4 and 2
"MYC-tagged Gpi1 (glucose-6-phosphate isomerase), wild-type (from UniProt P06745 1-558) (enzyme)",stoichiometry N,[2],2 and 4

# Several values for one entry are separate records, joined by “and”; a condition that tells them apart may be missing. Equal values may be shown once.
